Only a part is listed here, and it is no random draw. Records with an inconclusive call do not appear. Calls of active or inactive are those of the source. Unless noted, the call rests on the fitted dose curve; in most records, active means well fitted curve in the direction sought with a large enough effect; inconclusive means small, poorly fitted or top-dose-only effect, or another doubt; inactive means no such curve, though single readings can be large; an effect the other way counts as inactive or inconclusive.
Key:
[1] = qHTS Assay for Identification of Small Molecule Agonists for Hypoxia Response Element Signaling Pathway (AID 914; active means well fitted activation curve with a large enough effect in the signal ratio, with a control signal flat, not every such curve was filed as active; the % refers to the signal ratio; further: % of control where 0% means no effect); details: ME-180 (cervical carcinoma) HRE-bla reporter, beta-lactamase ratio, CoCl2, 17 h; hits give high values
[2] = Cellular Toxicity (caspase-3) H-4-II-E (AID 663); details: H-4-II-E rat hepatoma, scaled: DMSO 0%, 100 µM tamoxifen 100%; at 92.2 µM (top of the series)
Excerpt: (§1) NIH Chemical Genomics Center [NCGC]
(§2) NIH Molecular Libraries Screening Centers Network [MLSCN]
(§3) National Institutes of Environmental Health Sciences [NIEHS]
(§4) National Toxicology Program [NTP]
We have developed a 1536-well cell-based assay for quantitative high throughput screening (qHTS) against a number of cell lines to determine in vitro caspase 3/7 of small molecules. This particular assay uses the H-4-II-E cell line which is derived from rat hepatoma.
(§5) NCGC Assay Protocol Summary:
(§6) The Caspase-Glo 3/7 assay (Promega) is a homogeneous method to measure caspase-3 and caspase-7 activities in cultured cells. The quantitation of caspase 3/7 activity is based on the cleavage of a peptide-aminoluciferin substrate. […]
Using the Caspase-Glo 3/7 assay, the amount of caspase 3/7 activity was measured in the H-4-II-E cell line with complete culture medium following compound treatment for 16 hours. […] Library compounds were measured for their ability to cause the activation of caspase 3/7 in the cell line, as reflected by an increase in luminescence signal, in a concentration-dependent manner. […] AC50 values were determined from concentration-response data modeled with the standard Hill equation. […]
(§7) 8. Detection; Luminescence; Viewlux plate reader
Keywords: caspase 3/7, apoptosis, H-4-II-E cell line, luminescence, NTPHTS, NTPHTS_NCGC, NIEHS, EPA, DSSTox, MLSMR, MLSCN, NIH Roadmap, qHTS, NCGC

The chains behind the UniProt entries cited, without tags or fusion partners.
UniProt P08684, whole entry: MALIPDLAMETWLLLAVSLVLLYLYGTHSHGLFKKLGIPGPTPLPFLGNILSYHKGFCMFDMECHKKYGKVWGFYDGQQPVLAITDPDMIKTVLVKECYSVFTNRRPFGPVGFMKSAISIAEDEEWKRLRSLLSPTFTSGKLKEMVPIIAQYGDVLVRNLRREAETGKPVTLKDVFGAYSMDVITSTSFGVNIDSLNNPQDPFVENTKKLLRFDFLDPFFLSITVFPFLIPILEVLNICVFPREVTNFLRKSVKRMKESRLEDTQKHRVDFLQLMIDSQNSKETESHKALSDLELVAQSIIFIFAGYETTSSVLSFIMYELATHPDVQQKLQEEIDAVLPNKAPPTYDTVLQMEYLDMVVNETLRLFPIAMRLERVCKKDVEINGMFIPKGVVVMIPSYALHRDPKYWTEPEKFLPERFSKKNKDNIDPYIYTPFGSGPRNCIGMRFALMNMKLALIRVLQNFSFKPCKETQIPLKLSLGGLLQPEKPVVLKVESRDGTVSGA

[3] = Cellular Toxicity (caspase-3) Hek293 (AID 664); details: HEK293 caspase-3 activation, DMSO = 0%, 100 µM tamoxifen = 100%; at 92.2 µM (top of the series);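 further: cells exposed to compound for 16 h at 37 °C before readout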
How it was run: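 Concentration-response qHTS: caspase 3/7 activation measured by luminescent aminoluciferin substrate cleavage after 16 h compound exposure of Hek 293 cells. AC50 from Hill equation, with DMSO as basal and 100 uM tamoxifen as 100%.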

[4] = Cellular Toxicity (caspase-3) N2a (AID 665); details: N2a cells, luminescence, normalized: DMSO 0%, 10 µM staurosporine 100%; at 92.2 µM (top of the series);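 further: compound exposure lasted 16 h at 37 °C before readout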
Excerpt: as §1, §2, §3, §4
We have developed a 1536-well cell-based assay for quantitative high throughput screening (qHTS) against a number of cell lines to determine in vitro caspase 3/7 activity of small molecules. This particular assay uses the N2a cell line which is derived from mouse neuroblastoma.
as §5, §6
Using the Caspase-Glo 3/7 assay, the amount of caspase 3/7 activity was measured in the N2a cells with complete culture medium following compound treatment for 16 hours. […] Library compounds were measured for their ability to cause the activation of caspase 3/7 in the cell line, as reflected by an increase in luminescence signal, in a concentration-dependent manner. […] AC50 values were determined from concentration-response data modeled with the standard Hill equation. […]
as §7
Keywords: caspase 3/7, apoptosis, mouse N2a cell line, luminescence, NTPHTS, NTPHTS_NCGC, NIEHS, EPA, DSSTox, MLSMR, MLSCN, NIH Roadmap, qHTS, NCGC

[5] = Cellular Toxicity (caspase-3) NIH 3T3 (AID 666); details: NIH 3T3 caspase-3 activation, apoptosis/toxicity, 0% DMSO, 100% is 100 µM tamoxifen; at 92.2 µM (top of the series);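 further: caspase signal read after 16 h compound exposure; 0% = DMSO basal and 100% = 100 µM tamoxifen stimulation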
How it was run: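 Caspase-Glo 3/7 luminescence reported caspase activation in 1000 NIH 3T3 cells/well after 16 h compound exposure at 37 C. DMSO set basal and 100 uM tamoxifen set 100% stimulation; concentration-response modeled with the Hill equation for AC50.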

[6] = Cellular Toxicity (caspase-3) Renal Proximal Tubule (AID 667); details: renal proximal tubule cells, primary cells freshly taken from rat, solvent-only wells 0%, staurosporine 100%; at 91.7 µM (top of the series);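 further: cells exposed to compound for 16 hours at 37 °C before detection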
Excerpt: as §1, §2, §3, §4
We have developed a 1536-well cell-based assay for quantitative high throughput screening (qHTS) against a number of cell lines to determine in vitro caspase 3/7 activity of small molecules. This particular assay uses the primary kidney proximal tubule cells freshly isolated from rat.
as §5, §6
Using the Caspase-Glo 3/7 assay, the amount of caspase 3/7 activity was measured in the rat kidney proximal tubule cells with complete culture medium following compound treatment for 16 hours. […] Library compounds were measured for their ability to cause the activation of caspase 3/7 in the cell line, as reflected by an increase in luminescence signal, in a concentration-dependent manner. […] AC50 values were determined from concentration-response data modeled with the standard Hill equation. […]
8. Detection; Luminescence; Viewlux plate reader […]

[7] = molecular target: Cytochrome P450 3A4 (Homo sapiens) (UniProt P08684); test: qHTS Assay for Inhibitors and Substrates of Cytochrome P450 3A4 (AID 884); details: recombinant CYP3A4, Luciferin-PPXE luminescence; at 57.1 µM (top of the series); further: on the % scale 0 is the no-effect control and ±100 the full control effect; nearly all actives have a fitted effect of over 50% in size
[8] = Cell Viability - LYMP2-001 (AID 921); details: LYMP2-001 lymphoblastoid cell viability; at 92.2 µM (top of the series);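 further: cells exposed to compound for 24 h at 37 °C; 0% = DMSO only and full inhibition = tetraoctylammonium bromide control wells; nearly all actives have a fitted effect of over 70% in size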
How it was run: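 CellTiter-Glo luminescence (intracellular ATP) after 24 hr compound exposure at 37 C, 2500 lymphoblastoid cells/well in complete medium. AC50 fitted with standard Hill equation; tetraoctylammonium bromide positive control.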

[9] = MultiTox-Fluor Cytotoxicity Assay - LYMP1-001 - Dead Cells (AID 946); details: LYMP1-001 lymphoblastoid cells, dead-cell protease fluorescence; at 92.2 µM (top of the series);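 further: 0% = DMSO and 100% = tetraoctylammonium bromide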
How it was run: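 In this qHTS, 15 uM tetraoctylammonium bromide defined 100% and DMSO defined basal activity. Lymphoblastoid cells (LYMP1-001, 2500 per well) received compound for 16 hr at 37 C before a fluorogenic dead-cell substrate readout at 485/520 nm.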

[10] = MultiTox-Fluor Cytotoxicity Assay - LYMP1-001 - Live Cells (AID 947); details: LYMP1-001 lymphoblastoid cells, live-cell protease fluorescence viability; at 92.2 µM (top of the series);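 further: 0% = DMSO only and full inhibition = tetraoctylammonium bromide control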

O=C(O)C1(Nc2ccccc2)CCN(Cc2ccccc2)CC1
inactive: activation [1] 4.81%

ClCCOP(OCCCl)OCCCl
inactive: caspase-3 activation [2] -0.131% | caspase-3 activation [3] -1.84% | caspase-3 activation [4] -0.293% | caspase-3 activation [5] 4.58% | caspase-3 activation [6] 9.6% | activity change, negative = inhibition [7] -0.59% | activity change, negative = cytotoxic [8] -8.14% | cytotoxicity (dead cells) [9] 2.81% | activity change, negative = cytotoxicity [10] -10.5%

CCOP(=O)(Cl)Cl
inactive: caspase-3 activation [2] -0.0551% | caspase-3 activation [3] -0.558% | caspase-3 activation [4] 1.29% | caspase-3 activation [5] -2.46% | caspase-3 activation [6] 3.8% | activity change, negative = inhibition [7] -1.39% | activity change, negative = cytotoxic [8] -14.5% | cytotoxicity (dead cells) [9] 0.805% | activity change, negative = cytotoxicity [10] -3.22%

Reference: PubChem BioAssay (NCATS)
